# In patent US10280144B2, “Pyridazine derivatives as RORc modulators” (Genentech, Inc., priority 2015, dated 2019):
# Amino acid sequences for entries named in this document (tags omitted). Residues count along the entry.
# UniProt P51449, 269-508: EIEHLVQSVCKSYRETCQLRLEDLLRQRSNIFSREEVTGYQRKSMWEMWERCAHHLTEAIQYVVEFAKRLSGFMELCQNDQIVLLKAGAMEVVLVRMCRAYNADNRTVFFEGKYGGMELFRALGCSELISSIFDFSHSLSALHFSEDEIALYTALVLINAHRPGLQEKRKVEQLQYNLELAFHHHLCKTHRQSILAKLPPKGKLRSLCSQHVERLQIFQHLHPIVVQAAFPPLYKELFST
# Molecular target: RORc ligand binding domain (Homo sapiens (Human), UniProt P51449)
# Assay: In Vitro RORc Ligand Binding Assay
# Conditions: radioligand 25-[3H]hydroxycholesterol
row,IC50,SMILES
1,2.9 nM,"CCN(C[C@@]12CC[C@@H](c3cc(-c4c(F)cccc4F)nnc31)C2(C)C)S(=O)(=O)Cc1cc(F)ccc1F [Compound 149, 1-(2,5-difluorophenyl)-N-(((5R,8S)-3-(2,6-difluorophenyl)-9,9-dimethyl-5,6,7,8-tetrahydro-5,8-methanocinnolin-8-yl)methyl)-N-ethylmethanesulfonamide]"
2,9.2 nM,"CCN(C[C@@]12CC[C@@H](c3cc(-c4c(F)cccc4F)nnc31)C2(C)C)S(=O)(=O)Cc1ccccn1 [Compound 145, N-(((5R,8S)-3-(2,6-difluorophenyl)-9,9-dimethyl-5,6,7,8-tetrahydro-5,8-methanocinnolin-8-yl)methyl)-N-ethyl-1-(pyridin-2-yl)methanesulfonamide]"
3,60.8 nM,"CCN(C[C@@]12CC[C@@H](c3cc(-c4c(F)cccc4F)nnc31)C2(C)C)C(=O)C1CCCN1S(C)(=O)=O (stereo partly drawn) [Compound 61, N-(((5R,8S)-3-(2,6-difluorophenyl)-9,9-dimethyl-5,6,7,8-tetrahydro-5,8-methanocinnolin-8-yl)methyl)-N-ethyl-1-(methylsulfonyl)pyrrolidine-2-carboxamide]"
4,57.9 nM,"CCN(C[C@@]12CC[C@@H](c3cc(-c4c(F)cccc4F)nnc31)C2(C)C)S(=O)(=O)c1ncn[nH]1 [Compound 129, N-(((5R,8S)-3-(2,6-difluorophenyl)-9,9-dimethyl-5,6,7,8-tetrahydro-5,8-methanocinnolin-8-yl)methyl)-N-ethyl-1H-1,2,4-triazole-5-sulfonamide]"
5,30 nM,"CCN(C[C@@]12CC[C@@H](c3cc(-c4ccccc4F)nnc31)C2(C)C)C(=O)c1c[nH]c(=O)cn1 [Compound 40, N-ethyl-N-(((5R,8S)-3-(2-fluorophenyl)-9,9-dimethyl-5,6,7,8-tetrahydro-5,8-methanocinnolin-8-yl)methyl)-5-oxo-4,5-dihydropyrazine-2-carboxamide]"
6,228 nM,"CC1(C)[C@H]2CC[C@]1(CN(CCC#N)C(=O)c1cccc(=O)[nH]1)c1nnc(-c3c(F)cccc3F)cc12 [Compound 15, N-(2-cyanoethyl)-N-(((5R,8S)-3-(2,6-difluorophenyl)-9,9-dimethyl-5,6,7,8-tetrahydro-5,8-methanocinnolin-8-yl)methyl)-6-oxo-1,6-dihydropyridine-2-carboxamide]"
7,75.5 nM,"CC1(C)[C@H]2CC[C@]1(CN(CC(F)F)C(=O)c1ccc(=O)[nH]c1)c1nnc(-c3c(F)cccc3F)cc12 [Compound 42, N-(2,2-difluoroethyl)-N-(((5R,8S)-3-(2,6-difluorophenyl)-9,9-dimethyl-5,6,7,8-tetrahydro-5,8-methanocinnolin-8-yl)methyl)-6-oxo-1,6-dihydropyridine-3-carboxamide]"
8,70 nM,"CCN(C[C@@]12CC[C@@H](c3cc(-c4c(F)cccc4F)nnc31)C2(C)C)C(=O)C1CCS(=O)(=O)C1 (stereo partly drawn) [Compound 109, N-(((5R,8S)-3-(2,6-difluorophenyl)-9,9-dimethyl-5,6,7,8-tetrahydro-5,8-methanocinnolin-8-yl)methyl)-N-ethyltetrahydrothiophene-3-carboxamide 1,1-dioxide]"
9,9.2 nM,"CCN(C[C@@]12CC[C@@H](c3cc(-c4c(F)cccc4F)nnc31)C2(C)C)C(=O)c1n[nH]c2cc(F)ccc12 [Compound 77, N-(((5R,8S)-3-(2,6-difluorophenyl)-9,9-dimethyl-5,6,7,8-tetrahydro-5,8-methanocinnolin-8-yl)methyl)-N-ethyl-6-fluoro-1H-indazole-3-carboxamide]"
10,38.6 nM,"CCN(C[C@@]12CC[C@@H](c3cc(-c4c(F)cccc4F)nnc31)C2(C)C)C(=O)CC1CCS(=O)(=O)C1 (stereo partly drawn) [Compound 58, N-(((5R,8S)-3-(2,6-difluorophenyl)-9,9-dimethyl-5,6,7,8-tetrahydro-5,8-methanocinnolin-8-yl)methyl)-2-(1,1-dioxidotetrahydrothiophen-3-yl)-N-ethylacetamide]"
11,35.5 nM,"CCN(C[C@@]12CC[C@@H](c3cc(-c4c(F)cccc4F)nnc31)C2(C)C)C(=O)CC1NC(=O)c2ccccc21 (stereo partly drawn) [Compound 56, N-(((5R,8S)-3-(2,6-difluorophenyl)-9,9-dimethyl-5,6,7,8-tetrahydro-5,8-methanocinnolin-8-yl)methyl)-N-ethyl-2-(3-oxoisoindolin-1-yl)acetamide]"
12,28.2 nM,"CCN(C[C@@]12CC[C@@H](c3cc(-c4c(F)cccc4F)nnc31)C2(C)C)C(=O)c1cnn[nH]1 [Compound 45, N-(((5R,8S)-3-(2,6-difluorophenyl)-9,9-dimethyl-5,6,7,8-tetrahydro-5,8-methanocinnolin-8-yl)methyl)-N-ethyl-1H-1,2,3-triazole-5-carboxamide]"
13,222 nM,"CC1(C)[C@@H]2CC[C@@]1(NC(=O)OCc1ccccc1)c1nnc(-c3c(F)cccc3F)cc12 [Compound 2, benzyl ((5S,8S)-3-(2,6-difluorophenyl)-9,9-dimethyl-5,6,7,8-tetrahydro-5,8-methanocinnolin-8-yl)carbamate]"
14,40.6 nM,"CCN(C[C@@]12CC[C@@H](c3cc(-c4c(F)cccc4F)nnc31)C2(C)C)C(=O)c1cccc(-n2cnnc2)c1 [Compound 66, N-(((5R,8S)-3-(2,6-difluorophenyl)-9,9-dimethyl-5,6,7,8-tetrahydro-5,8-methanocinnolin-8-yl)methyl)-N-ethyl-3-(4H-1,2,4-triazol-4-yl)benzamide]"
15,35.2 nM,"CCN(C[C@@]12CC[C@@H](c3cc(-c4c(F)cccc4F)nnc31)C2(C)C)C(=O)c1cnn2cccnc12 [Compound 29, N-(((5R,8S)-3-(2,6-difluorophenyl)-9,9-dimethyl-5,6,7,8-tetrahydro-5,8-methanocinnolin-8-yl)methyl)-N-ethylpyrazolo[1,5-a]pyrimidine-3-carboxamide]"
16,38 nM,"CCN(C[C@@]12CC[C@@H](c3cc(-c4c(F)cccc4F)nnc31)C2(C)C)C(=O)c1cc(C(C)(C)O)n[nH]1 [Compound 189, N-[[(1S,8R)-5-(2,6-difluorophenyl)-11,11-dimethyl-3,4-diazatricyclo[6.2.1.02,7]undeca-2,4,6-trien-1-yl]methyl]-N-ethyl-3-(1-hydroxy-1-methyl-ethyl)-1H-pyrazole-5-carboxamide]"
17,641 nM,"CC(=O)N(C[C@@]12CC[C@@H](c3cc(-c4c(F)cccc4F)nnc31)C2(C)C)c1nnc(C)o1 [Compound 4, N-(((5R,8S)-3-(2,6-difluorophenyl)-9,9-dimethyl-5,6,7,8-tetrahydro-5,8-methanocinnolin-8-yl)methyl)-N-(5-methyl-1,3,4-oxadiazol-2-yl)acetamide]"
18,30 nM,"CCN(C[C@@]12CC[C@@H](c3cc(-c4c(F)cccc4F)nnc31)C2(C)C)C(=O)C1(O)COC1 [Compound 49, N-(((5R,8S)-3-(2,6-difluorophenyl)-9,9-dimethyl-5,6,7,8-tetrahydro-5,8-methanocinnolin-8-yl)methyl)-N-ethyl-3-hydroxyoxetane-3-carboxamide]"
19,37 nM,"CCN(C[C@@]12CC[C@@H](c3cc(-c4c(F)cccc4F)nnc31)C2(C)C)C(=O)c1ccc2[nH]c(C)nc2c1 [Compound 63, N-(((5R,8S)-3-(2,6-difluorophenyl)-9,9-dimethyl-5,6,7,8-tetrahydro-5,8-methanocinnolin-8-yl)methyl)-N-ethyl-2-methyl-1H-benzo[d]imidazole-5-carboxamide]"
20,7.3 nM,"CCN(C[C@@]12CC[C@@H](c3cc(-c4c(F)cccc4F)nnc31)C2(C)C)S(=O)(=O)C1CC1 [Compound 128, N-(((5R,8S)-3-(2,6-difluorophenyl)-9,9-dimethyl-5,6,7,8-tetrahydro-5,8-methanocinnolin-8-yl)methyl)-N-ethylcyclopropanesulfonamide]"
21,96.9 nM,"CCN(C[C@@]12CC[C@@H](c3cc(-c4c(F)cccc4F)nnc31)C2(C)C)C(=O)c1cc(O)ccn1 [Compound 155, N-(((5R,8S)-3-(2,6-difluorophenyl)-9,9-dimethyl-5,6,7,8-tetrahydro-5,8-methanocinnolin-8-yl)methyl)-N-ethyl-4-hydroxypicolinamide]"
22,27.9 nM,"CCN(C[C@@]12CC[C@@H](c3cc(-c4c(F)cccc4F)nnc31)C2(C)C)C(=O)c1cnc(N)cn1 [Compound 39, 5-amino-N-(((5R,8S)-3-(2,6-difluorophenyl)-9,9-dimethyl-5,6,7,8-tetrahydro-5,8-methanocinnolin-8-yl)methyl)-N-ethylpyrazine-2-carboxamide]"
23,68.7 nM,"CCN(C[C@@]12CC[C@@H](c3cc(-c4c(F)cccc4F)nnc31)C2(C)C)C(=O)C1CN(C(=O)C(C)C)C1 [Compound 91, N-(((5R,8S)-3-(2,6-difluorophenyl)-9,9-dimethyl-5,6,7,8-tetrahydro-5,8-methanocinnolin-8-yl)methyl)-N-ethyl-1-isobutyrylazetidine-3-carboxamide]"
24,10.8 nM,"CCN(C[C@@]12CC[C@@H](c3cc(-c4c(F)cccc4F)nnc31)C2(C)C)S(=O)(=O)Cc1ccncc1 [Compound 144, N-(((5R,8S)-3-(2,6-difluorophenyl)-9,9-dimethyl-5,6,7,8-tetrahydro-5,8-methanocinnolin-8-yl)methyl)-N-ethyl-1-(pyridin-4-yl)methanesulfonamide]"
25,22.5 nM,"CCN(C[C@@]12CC[C@@H](c3cc(-c4c(F)cccc4F)nnc31)C2(C)C)C(=O)c1ccc(C#N)nc1 [Compound 74, 6-cyano-N-(((5R,8S)-3-(2,6-difluorophenyl)-9,9-dimethyl-5,6,7,8-tetrahydro-5,8-methanocinnolin-8-yl)methyl)-N-ethylnicotinamide]"
26,136 nM,"CC1(N(C[C@@]23CC[C@@H](c4cc(-c5c(F)cccc5F)nnc42)C3(C)C)C(=O)c2c[nH]c(=O)cn2)CC1 [Compound 34, N-(((5R,8S)-3-(2,6-difluorophenyl)-9,9-dimethyl-5,6,7,8-tetrahydro-5,8-methanocinnolin-8-yl)methyl)-N-(1-methylcyclopropyl)-5-oxo-4,5-dihydropyrazine-2-carboxamide]"
27,306 nM,"CCN(C[C@@]12CC[C@@H](c3cc(-c4c(F)cccc4F)nnc31)C2(C)C)C(=O)CN1CCC(O)CC1 [Compound 179, N-(((5R,8S)-3-(2,6-difluorophenyl)-9,9-dimethyl-5,6,7,8-tetrahydro-5,8-methanocinnolin-8-yl)methyl)-N-ethyl-2-(4-hydroxypiperidin-1-yl)acetamide]"
